Values of other authors, collected in US20090054334A1, “Combinatorial improvement of bifunctional drug properties” (priority 2007, published 2009).

Conditions: ConjuChem

insulin
half-life: 8 h
